The results in this text go back to PubChem BioAssay AID624304 (Sanford-Burnham Center for Chemical Genomics, 2012).

The list shows a part of the results, in another mix than the full data. Calls of active or inactive are those of the source.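 Rule for the calls: active = interference check ratio from 0.5 to 1.5 plus GFP to RFP signal ratio inhibition reaching or exceeding a fixed threshold (cut at about 30% in these data, passing the limit was not always enough); inactive = the rest.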

This test can be described thus: gst-4 reporter inhibition in live C. elegans – whole organism, uHTS, GFP/RFP fluorescence ratio, strain VP596, SKN-1 inhibitor project, primary screen (AID 624304). The note with it: C. elegans VP596 Pgst-4::GFP/RFP ratio, acrylamide-induced, 24 h; at 21.8 µM; hits give high values.
One may read the inhibition as the relative decrease from the control value, in per cent. With `Cc1c(C(c2ccc3c(c2)OCO3)c2c(C)n(C)n(-c3ccccc3)c2=O)c(=O)n(-c2ccccc2)n1C.O=[N+]([O-])c1cc([N+](=O)[O-])c(O)c([N+](=O)[O-])c1`, the inhibition is inactive: -15.2%. On to `O=[N+]([O-])c1ccc(OP2(=O)COCCO2)cc1` (stereo not given), for which the inhibition is inactive: 3.17%. Turning to `O=[N+]([O-])c1cc([N+](=O)[O-])c(NCC2CCS(=O)(=O)C2)c([N+](=O)[O-])c1` (stereo not given), the inhibition was inactive: 6.27%.

Turning to `Cc1cc(-c2cccc3ccccc23)c(C)cn1.O=[N+]([O-])c1cc([N+](=O)[O-])c(O)c([N+](=O)[O-])c1`, the inhibition was inactive: 1.6%. In the case of `CCOC(=O)C(CC)C1=NC(C)(C)Cc2ccccc21.O=[N+]([O-])c1cc([N+](=O)[O-])c(O)c([N+](=O)[O-])c1` (stereo not given) it was inactive: -9.2%. In the case of `CC1=C2N=C(C=C3N=C(C(C)=C4[N-][C@@](C)([C@@H]5N=C1[C@](C)(CCC(=O)NC[C@@H](C)OP(=O)([O-])O[C@H]1[C@@H](O)[C@@H](n6cnc7cc(C)c(C)cc76)O[C@@H]1CO)[C@H]5CC(N)=O)[C@@](C)(CC(N)=O)[C@@H]4CCC(N)=O)[C@@](C)(CC(N)=O)[C@@H]3CCC(N)=O)C(C)(C)[C@@H]2CCC(N)=O.[C-]#N.[Co+3]` it was inactive: 3.75%; in that of `O=[N+]([O-])c1cc([N+](=O)[O-])c(Nc2nnnn2CCO)c([N+](=O)[O-])c1`, inactive: 16.7%; in that of `COc1ccc(-c2ccccn2)cc1.O=[N+]([O-])c1cc([N+](=O)[O-])c(O)c([N+](=O)[O-])c1`, inactive: 1.99%. In the case of `CCCOc1ccc(NP(C)(=O)Oc2ccc(Cl)cc2)cc1` (stereo not given) it was inactive: 10.1%; in that of `CP(=O)(Nc1ccc(SC(F)(F)F)cc1)Oc1ccccc1` (stereo not given), inactive: 21.2%; in that of `CN1CCCCC1COC(=O)C1(O)c2ccccc2CCc2ccccc21` (stereo not given), inactive: -3.57%.

`COc1ccccc1OP(C)(=O)Nc1c(C)cccc1C` (stereo not given): the inhibition is inactive: 6.36%. Consider `CN(Cc1cccnc1)C(=O)COc1ccc(Cl)c(Cl)c1.O=[N+]([O-])c1cc([N+](=O)[O-])c(O)c([N+](=O)[O-])c1`, for which the inhibition is inactive: -3.07%.

Turning to `O=[N+]([O-])c1cc([N+](=O)[O-])c(-n2nnc3ccccc32)c([N+](=O)[O-])c1`, the inhibition was inactive: -6.1%. In the case of `Cc1nc2ccc3ccccc3c2s1.O=[N+]([O-])c1cc([N+](=O)[O-])c(O)c([N+](=O)[O-])c1` it was inactive: 9.38%. Turning to `O=[N+]([O-])c1cc([N+](=O)[O-])c(-c2cnn(-c3ccccc3)c2)c([N+](=O)[O-])c1`, the inhibition is inactive: 9.99%. In the case of `CCOC(=O)c1ccc(NP(C)(=O)Oc2cc(C)cc(C)c2)cc1` (stereo not given) it was inactive: 15.6%. In the case of `Cc1cc(C)cc(OP(C)(=O)Nc2ccc(C)cc2C)c1` (stereo not given) it was inactive: 7.25%; in that of `COc1ccccc1OP(C)(=O)Nc1cccc(Br)c1` (stereo not given), inactive: 9.37%. As to `Cc1ccc(C)c(NP(C)(=O)Oc2ccccc2)c1` (stereo not given), the inhibition is inactive: 24.2%. For `Cc1cc(C)cc(OP(C)(=O)Nc2ccccn2)c1` (stereo not given), the inhibition is inactive: 7.52%. As for `CP(=O)(Nc1cccc(Br)c1)Oc1ccccc1` (stereo not given), the inhibition was inactive: -14.7%. On to `O=C(O)c1cccc(Nc2c([N+](=O)[O-])cc([N+](=O)[O-])cc2[N+](=O)[O-])c1`, for which the inhibition was inactive: 12%.

For `CC1=NCCc2c1[nH]c1ccccc21.O=[N+]([O-])c1cc([N+](=O)[O-])c(O)c([N+](=O)[O-])c1`, the inhibition is inactive: -15.3%. Turning to `O=[N+]([O-])c1ccc2c(c1)C=Nc1ccccc1O2`, the inhibition is inactive: 2.6%.

For `Cc1cccc(C)c1OP(C)(N)=O` (stereo not given), the inhibition was inactive: 3.13%. As for `CC(C)(C)c1ccc(OP(C)(=O)Nc2ccc(SC(F)(F)F)cc2)cc1` (stereo not given), the figure is inactive: 3.93%; as for `O=[N+]([O-])c1cc([N+](=O)[O-])c(Nc2cccnc2)c([N+](=O)[O-])c1`, inactive: -1.87%. On to `Cc1cc(C)cc(OP(C)(N)=O)c1` (stereo not given), for which the inhibition is inactive: 1.04%.

As for `COc1ccc(OP(C)(=O)Nc2cccc(F)c2)cc1` (stereo not given), the inhibition was inactive: 26.3%. As for `COc1ccccc1OP(C)(=O)Nc1cc(Cl)ccc1C` (stereo not given), the figure is inactive: 3.59%; as for `Cc1ccc(NP(C)(=O)Oc2ccccc2)c(C)c1` (stereo not given), inactive: 21.6%; as for `COc1ccccc1OP(C)(=O)Nc1ccc(C)cc1` (stereo not given), inactive: 19.9%. In the case of `CCOC(=O)c1ccc(NP(C)(=O)Oc2ccccc2)cc1` (stereo not given) it was inactive: -2.9%; in that of `CCN(CC)CCCOC(=O)C(O)(c1ccccc1)c1ccccc1`, inactive: -0.698%.

Regarding `COc1ccccc1-c1ccccn1.O=[N+]([O-])c1cc([N+](=O)[O-])c(O)c([N+](=O)[O-])c1`, the inhibition is inactive: 4.47%. In the case of `Cc1cc(C)cc(OP(C)(=O)Nc2ccc(SC(F)(F)F)cc2)c1` (stereo not given) it was inactive: -6.53%; in that of `CP(=O)(NC(=O)Nc1ccccc1)Oc1ccccc1` (stereo not given), inactive: -4.32%. Take `CCc1ccc(OP(C)(=O)N2CCN(c3ccc([N+](=O)[O-])cc3)CC2)cc1` (stereo not given): the inhibition is inactive: 5.46%. On to `CP(=O)(Oc1ccccc1)OC(c1ccccc1)C(F)(F)F` (stereo not given), for which the inhibition was inactive: 4.3%. For the compound `CP(=O)(Nc1ccc(SC(F)(F)F)cc1)Oc1ccc(Cl)cc1` (stereo not given), the inhibition was inactive: 32.1%.

As for `Cc1cccc(C)c1OP(C)(=O)Nc1ccc(SC(F)(F)F)cc1` (stereo not given), the inhibition was inactive: 3.79%.

With `Cc1ccc(Nc2c([N+](=O)[O-])cc([N+](=O)[O-])cc2[N+](=O)[O-])cc1`, the inhibition is inactive: 9.11%. In the case of `CP(=O)(Nc1ccccn1)Oc1ccc(Cl)cc1` (stereo not given), the inhibition was inactive: 6.04%. In the case of `O=[N+]([O-])c1cc([N+](=O)[O-])c(O)c([N+](=O)[O-])c1.c1ccc(Oc2ccncc2)cc1` it was inactive: -6.22%; in that of `CCOC(=O)c1ccc(NP(C)(=O)Oc2ccc(OC)cc2)cc1` (stereo not given), inactive: 8.18%. In the case of `CCOP(C)(=S)SCC(=O)NC(C)C(=O)O` (stereo not given) it was inactive: -16.3%; in that of `CP(=O)(Nc1ccccc1Br)Oc1ccccc1` (stereo not given), inactive: 12.6%.

For `COc1ccccc1OP(C)(=O)Nc1ccccc1` (stereo not given), the inhibition is inactive: 1.35%.

As for `CP(=S)(Nn1cnnc1)Oc1ccccc1` (stereo not given), the inhibition is inactive: 7.56%.
